Active and inactive are the calls of the source. The calls are words filed in the database; no cut-off is given here.
Legend:
Aerococcus viridans = conditions: dose 1.0 mM, time 30.0 min
[1] = target: T1, 1-deoxy-D-xylulose-5-phosphate synthase (Pseudomonas aeruginosa (strain LESB58)) (UniProt B7V7R4); conditions: dose 1.0 mM, time 10.0 min
T1 sequence (whole entry): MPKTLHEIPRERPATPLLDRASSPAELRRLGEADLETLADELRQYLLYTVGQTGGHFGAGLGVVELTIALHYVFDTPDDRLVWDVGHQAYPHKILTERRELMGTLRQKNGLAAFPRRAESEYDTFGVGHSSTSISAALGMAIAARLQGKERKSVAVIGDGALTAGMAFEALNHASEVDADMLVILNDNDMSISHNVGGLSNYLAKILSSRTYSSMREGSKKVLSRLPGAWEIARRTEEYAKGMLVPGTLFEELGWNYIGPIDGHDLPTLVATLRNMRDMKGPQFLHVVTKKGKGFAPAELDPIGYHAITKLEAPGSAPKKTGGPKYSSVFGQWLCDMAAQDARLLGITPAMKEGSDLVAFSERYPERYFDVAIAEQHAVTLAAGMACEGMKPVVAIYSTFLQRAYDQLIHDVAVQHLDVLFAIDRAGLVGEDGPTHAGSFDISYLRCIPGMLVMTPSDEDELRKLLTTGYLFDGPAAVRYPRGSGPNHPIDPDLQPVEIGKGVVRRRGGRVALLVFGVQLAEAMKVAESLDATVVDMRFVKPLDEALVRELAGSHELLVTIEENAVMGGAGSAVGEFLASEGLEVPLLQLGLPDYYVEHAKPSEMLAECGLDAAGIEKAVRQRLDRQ

[2] = target: T2, 1-deoxy-D-xylulose-5-phosphate synthase (Klebsiella pneumoniae) (UniProt B5Y0X1); conditions: dose 1.0 mM, time 10.0 min
T2 sequence (whole entry): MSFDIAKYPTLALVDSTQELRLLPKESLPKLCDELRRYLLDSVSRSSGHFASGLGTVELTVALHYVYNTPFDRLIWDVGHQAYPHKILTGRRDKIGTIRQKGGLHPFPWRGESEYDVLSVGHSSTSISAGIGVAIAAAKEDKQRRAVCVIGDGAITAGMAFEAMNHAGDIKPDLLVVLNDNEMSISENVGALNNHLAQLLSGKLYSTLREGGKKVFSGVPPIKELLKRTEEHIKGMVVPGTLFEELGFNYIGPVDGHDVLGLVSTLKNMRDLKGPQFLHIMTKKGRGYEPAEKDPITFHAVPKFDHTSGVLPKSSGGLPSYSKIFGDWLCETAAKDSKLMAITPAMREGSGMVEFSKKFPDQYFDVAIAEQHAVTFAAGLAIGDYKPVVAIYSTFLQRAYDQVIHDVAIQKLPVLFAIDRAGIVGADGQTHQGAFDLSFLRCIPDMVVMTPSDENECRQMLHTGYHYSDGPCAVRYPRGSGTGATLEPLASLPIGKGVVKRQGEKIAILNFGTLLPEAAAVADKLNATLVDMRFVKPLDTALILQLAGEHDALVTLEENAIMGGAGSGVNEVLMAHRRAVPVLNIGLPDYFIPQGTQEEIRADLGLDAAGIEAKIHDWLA

Saccharomyces cerevisiae = conditions: dose 1.0 mM, time 60.0 min

Row | SMILES | inhibition (Aerococcus viridans) | inhibition [1] [%] | inhibition [2] [%] | inhibition (Saccharomyces cerevisiae)
1 | CC(C)(C(=O)O)C(=O)N(O)Cc1ccccc1Cl | inactive | < 16 | < 16 | inactive
2 | CC1(C)C(=O)ON(Cc2ccccc2Cl)C1=O [KETOCLOMAZONE] | inactive | < 16 | < 16 | inactive

Reference: ChEMBL document CHEMBL5532701 (RSC Med Chem, 2024)
